Assay: Solubility, lipophilicity and viscosity of SAIB
Format: physicochemical
From the text: It is fully esterified at a ratio of six isobutyrate groups to two acetate groups. […] SAIB can be prepared by controlled esterification of sucrose (food grade) with acetic and isobutyric anhydrides, in the presence of a catalyst. The produced ester can be purified carrying out a filtration and distillation steps.
It was noticed that, mixing SAIB/IL in Chitin/IL and mixing Chitin/IL in SAIB/IL was slightly different, apparently having the first a better mechanical behavior in the end of the process.

dissolution in [bmim][Ac] (ionic liquid [bmim][Ac]): able to dissolve in [bmim][Ac]
dissolution in [bmim][Cl] (ionic liquid [bmim][Cl]): does not dissolve in [bmim][Cl]
Substance: Sucrose acetate isobutyrate [SAIB]
